Assay [1] addresses T1, Met kinase (Homo sapiens (Human), UniProt P08581). As to the kind of experiment: Met kinase inhibition, cell assay. The format is cell-based.
The target of assay [2] is T1, Met kinase. Description: Flashplate method (Met kinase), enzyme assay. The note with it: Met kinase inhibition. Format: biochemical.

Protein sequences, listed by entry. Tags and fused reporters are not part of them. Residues count along the entry.
UniProt P08581, 25-1390: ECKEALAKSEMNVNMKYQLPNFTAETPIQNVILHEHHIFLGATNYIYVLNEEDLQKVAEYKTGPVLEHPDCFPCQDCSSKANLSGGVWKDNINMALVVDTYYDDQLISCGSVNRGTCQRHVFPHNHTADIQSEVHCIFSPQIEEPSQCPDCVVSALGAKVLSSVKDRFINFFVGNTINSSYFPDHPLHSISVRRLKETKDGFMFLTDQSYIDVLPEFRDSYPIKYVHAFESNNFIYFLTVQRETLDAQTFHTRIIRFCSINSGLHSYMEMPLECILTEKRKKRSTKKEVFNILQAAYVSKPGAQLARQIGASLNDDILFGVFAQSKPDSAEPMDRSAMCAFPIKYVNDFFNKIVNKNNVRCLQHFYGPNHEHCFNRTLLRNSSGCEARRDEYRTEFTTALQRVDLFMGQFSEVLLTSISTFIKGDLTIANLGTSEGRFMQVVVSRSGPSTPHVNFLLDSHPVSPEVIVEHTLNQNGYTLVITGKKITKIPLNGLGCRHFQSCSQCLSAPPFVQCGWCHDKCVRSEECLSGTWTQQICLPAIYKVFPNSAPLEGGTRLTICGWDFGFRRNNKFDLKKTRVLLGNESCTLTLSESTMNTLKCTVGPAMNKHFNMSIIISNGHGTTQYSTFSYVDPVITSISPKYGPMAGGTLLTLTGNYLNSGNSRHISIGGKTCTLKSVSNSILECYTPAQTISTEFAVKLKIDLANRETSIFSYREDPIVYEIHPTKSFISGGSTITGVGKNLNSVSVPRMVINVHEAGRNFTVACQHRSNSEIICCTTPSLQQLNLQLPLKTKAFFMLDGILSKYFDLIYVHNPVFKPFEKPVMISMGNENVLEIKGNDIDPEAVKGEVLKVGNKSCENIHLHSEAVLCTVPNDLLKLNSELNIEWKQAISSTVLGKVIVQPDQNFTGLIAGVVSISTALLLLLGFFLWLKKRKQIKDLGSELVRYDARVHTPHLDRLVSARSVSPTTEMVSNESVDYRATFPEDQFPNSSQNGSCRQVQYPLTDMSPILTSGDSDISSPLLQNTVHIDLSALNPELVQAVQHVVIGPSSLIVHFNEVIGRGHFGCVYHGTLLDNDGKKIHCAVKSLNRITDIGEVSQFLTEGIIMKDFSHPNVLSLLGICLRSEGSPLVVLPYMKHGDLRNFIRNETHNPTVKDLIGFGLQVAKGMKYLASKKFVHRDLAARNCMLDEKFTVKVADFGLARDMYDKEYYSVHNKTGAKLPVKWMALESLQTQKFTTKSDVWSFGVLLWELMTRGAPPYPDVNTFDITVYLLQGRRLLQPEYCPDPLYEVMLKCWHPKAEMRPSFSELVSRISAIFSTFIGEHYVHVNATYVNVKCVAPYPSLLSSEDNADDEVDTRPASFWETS

Molecules are shown by their SMILES. Structures can show the parent of a compound that is named as a salt. Bounds are passed on as bounds.

The term IC50 denotes the concentration at which inhibition is half-maximal. For the compound `Cn1cc(-c2ccc(=O)n(Cc3cccc(-c4ncc(OCCN5CCOCC5)cn4)c3)n2)cn1` [Compound A5, 6-(1-Methyl-1H-pyrazol-4-yl)-2-{3-[5-(2-morpholin-4-yl-ethoxy)pyrimidin-2-yl]benzyl}-2H-pyridazin-3-one, fumarate], the IC50 at Met kinase [1] is < 100 nM.

Turning to `Cn1cc(-c2ccc(=O)n(Cc3cccc(-c4ncc(OCCN5CCOCC5)cn4)c3)n2)cn1` [Compound A4, 6-(1-Methyl-1H-pyrazol-4-yl)-2-{3-[5-(2-morpholin-4-yl-ethoxy)pyrimidin-2-yl]benzyl}-2H-pyridazin-3-one, p-tosylate], the IC50 at Met kinase [2] was < 100 nM.
